Test: in vitro
Conditions: dog, MDCK-MDR1

C=C[C@H]1C[N@@]2CC[C@H]1C[C@@H]2[C@@H](O)c1ccnc2ccc(OC)cc12 [Quinidine, reference compound]
Papp A→B: 4 ×10⁻⁶ cm/s

Reference: paper PMC6089501 (Journal of Medicinal Chemistry, 2018)
